Where two headings read alike, the source gives them in different places.

This series can be described thus: Solubility in water. The text has this: The arteannuin-cyclodextrin conjugate according to the present invention uses a cyclodextrin as a carrier, and a molecule of an arteannuin compound is connected, via an amide bond formed between the carboxyl group thereof and any amine group of the cyclodextrin modified by an amine group, to the cyclodextrin.
[1] abbreviates: isolated product of the example.

What is called solubility is how much of the substance goes into solution per volume. A low value points to little dissolved substance. Under setting [1], “conjugate of mono-[3-(diethylenetriamine)-6-deoxy]-α-cyclodextrin and the compound in which C-12 of the arteannuin was connected with a phenoxy group [Example 7]” yielded a solubility of 88 mg/mL.

Under setting [1], “conjugate of mono-[6-(triethylenetetraamine)-6-deoxy]-γ-cyclodextrin and the compound in which C-12 of the arteannuin was connected with a phenoxy group [Example 8]” gave a solubility of 95 mg/mL.

The substance “mono-[3-(diethylenetriamine)-6-deoxy]-α-cyclodextrin-artesunate conjugate [Example 3]” registered a solubility under setting [1] of 78 mg/mL.

As to “mono-[6-(ethanolamine)-6-deoxy]-γ-cyclodextrin-artesunate conjugate [Example 4]”, the solubility came to 75 mg/mL.

For the substance “mono-[6-(monoamine)-6-deoxy]-β-cyclodextrin-artesunate conjugate [Example 2]”, the solubility is given as 45 mg/mL.
